Reference: article PMC4609936, “Pharmacologically targeted NMDA receptor antagonism by NitroMemantine for cerebrovascular disease” (Scientific Reports, 2015)

System: spontaneously hypertensive rats (SHR)
Assay: tMCAO/R focal cerebral ischemia, infarct size by TTC staining
Format: in vivo, rat
Conditions: MFD of NitroMemantine (65.8 μmol/kg loading, 3.29 μmol/kg maintenance)
Protocol: Because of their known propensity to stroke, similar to human patients with hypertension, we used spontaneous hypertensive rats (SHR, Harlan) to induce tMCAO/R with the intraluminal suture method. Male 200–300 g SHR were anesthetized with 3% isoflurane in 30% oxygen/70% nitrous oxide using an anesthetic vaporizer and flowmeter. Body temperature was maintained at 37 °C with a homeothermic temperature system. A laser Doppler monitor was used to monitor relative cerebral blood flow (rCBF) during the surgical procedure and recovery. rCBF measurements were made immediately after anesthesia, after occlusion of the MCA, just before, and immediately after withdrawal of the suture to initiate reperfusion. To initiate a stroke, a midline incision was made to expose the right common carotid, external carotid, and internal carotid arteries. The occipital artery branches of the external carotid artery were isolated and along with the terminal lingual and maxillary artery branches coagulated with an electrocautery unit. The internal carotid artery was isolated and carefully separated from the adjacent vagus nerve. […] The rodents were sacrificed 24-h post occlusion, and the size of brain infarct was evaluated histologically by 2,3,5-triphenyl-2H-tetrazolium chloride (TTC) staining.

1-amino-3′,5′-diethyl-7-hydroxy-adamantine
histological protection (infarct size) at equimolar dose: no significant protection
